Publication PMC6321222, “An Application of Fit Quality to Screen MDM2/p53 Protein-Protein Interaction Inhibitors” (Molecules, 2018)

Chains of the proteins cited; added tags and fusions are not shown. Residues count along the entry.
UniProt Q00987, 1-118: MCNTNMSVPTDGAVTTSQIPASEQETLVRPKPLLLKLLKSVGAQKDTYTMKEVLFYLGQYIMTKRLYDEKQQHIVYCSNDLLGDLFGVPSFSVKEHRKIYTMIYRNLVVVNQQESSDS

Target: T1, human recombinant His-fused soluble protein MDM2 (residues 1–118) (Homo sapiens, UniProt Q00987)
T1 construct: His-fused soluble protein MDM2 (residues 1–118); His
Assay type: binding

Work on `COc1ccc(C2=N[C@@H](c3ccc(Cl)cc3)[C@@H](c3ccc(Cl)cc3)N2C(=O)N2CCNC(=O)C2)c(OC(C)C)c1` [Nutlin-3a, reference compound] yielded an FQ-Test of 0.84.
